Source: PMC4894417, “Quantitative High-Throughput Profiling of Environmental Chemicals and Drugs that Modulate Farnesoid X Receptor” (Scientific Reports, 2014)

Sequences of proteins named here, by UniProt entry; tags and fusion partners are left off. A line that says so, or that is headed by a name, gives the form on record, which may keep a tag or linker.
UniProt Q96RI1, with tags, fused parts or gaps limits assumed: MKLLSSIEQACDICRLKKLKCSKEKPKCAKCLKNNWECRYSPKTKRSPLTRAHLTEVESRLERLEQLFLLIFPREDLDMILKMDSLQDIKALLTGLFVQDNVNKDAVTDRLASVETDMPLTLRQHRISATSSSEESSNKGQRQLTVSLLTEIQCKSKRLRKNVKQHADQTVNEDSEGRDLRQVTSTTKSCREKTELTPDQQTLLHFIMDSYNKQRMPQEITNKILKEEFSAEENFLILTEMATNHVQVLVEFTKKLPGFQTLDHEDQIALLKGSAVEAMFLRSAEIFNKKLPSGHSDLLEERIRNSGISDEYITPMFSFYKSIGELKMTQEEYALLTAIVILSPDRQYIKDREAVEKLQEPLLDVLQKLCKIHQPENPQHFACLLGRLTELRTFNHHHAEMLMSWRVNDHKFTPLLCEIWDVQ

Legend:
human FXR [1] = biological target: T1, human FXR (Homo sapiens, UniProt Q96RI1); experiment: FXR-bla reporter gene assay, agonist mode (qHTS); conditions: Table S1, primary screening
human FXR [2] = biological target: T1, human FXR; experiment: FXR-bla reporter gene assay, antagonist mode (CDCA-induced transactivation); conditions: Table S1, primary screening; 50 µM CDCA

C/C=C1/C(=O)C[C@H]2[C@@H]3CCC4=CC(=O)CC[C@]4(C)[C@H]3CC[C@]12C [(E)-Guggulsterone]
FXR agonist mode EC50 (human FXR [1]): Inactive | FXR antagonist mode Efficacy (human FXR [2]): 58 ± 33%

C/C=C1\C(=O)C[C@H]2[C@@H]3CCC4=CC(=O)CC[C@]4(C)[C@H]3CC[C@]12C [(Z)-Guggulsterone]
FXR agonist mode EC50 (human FXR [1]): Inactive | FXR antagonist mode Efficacy (human FXR [2]): 124 ± 4%
